{
  "source": "paper PMC12596758",
  "about": "(Clinical pharmacology and therapeutics, 2025)",
  "key": {"[1]": {"settings": "cimetidine 400 mg vs baseline, healthy adults"}, "[2]": {"settings": "mice; cited from earlier work"}},
  "data": [
    {"smiles": "CN(C)C(=N)N=C(N)N", "note": "[Metformin]", "values": [
      {"measurement": "CLr,b, effect of cimetidine exposure vs baseline (in words)", "setting": "[1]", "result": "unaffected"},
      {"measurement": "liver-to-plasma ratio of metformin, effect of cimetidine", "setting": "[2]", "result": "significantly increase"}
    ]}
  ]
}
